The entries are a selection whose mix differs from that of the whole data set. Some salts and complexes are drawn in separate pieces, as the source files them; their charges need not balance. Calls of active or inactive are those of the source. Cut-off read from the data, not from the text of the source: active = activation above about 40%; inactive = the rest.
Molecular target: Atrial natriuretic peptide receptor 1 (Homo sapiens) (UniProt P16066)
Experiment: GC-A stimulated cGMP production enhancers – HEK293 GC-A cells, cGMP TR-FRET, EC30 ANP, primary screen (AID 1671463)
Conditions: at 10 µM, active compounds read high, 0% at EC30 ANP, 100% saturating ANP

Amino acid sequences for entries named in this document (tags omitted).
UniProt P16066, whole entry: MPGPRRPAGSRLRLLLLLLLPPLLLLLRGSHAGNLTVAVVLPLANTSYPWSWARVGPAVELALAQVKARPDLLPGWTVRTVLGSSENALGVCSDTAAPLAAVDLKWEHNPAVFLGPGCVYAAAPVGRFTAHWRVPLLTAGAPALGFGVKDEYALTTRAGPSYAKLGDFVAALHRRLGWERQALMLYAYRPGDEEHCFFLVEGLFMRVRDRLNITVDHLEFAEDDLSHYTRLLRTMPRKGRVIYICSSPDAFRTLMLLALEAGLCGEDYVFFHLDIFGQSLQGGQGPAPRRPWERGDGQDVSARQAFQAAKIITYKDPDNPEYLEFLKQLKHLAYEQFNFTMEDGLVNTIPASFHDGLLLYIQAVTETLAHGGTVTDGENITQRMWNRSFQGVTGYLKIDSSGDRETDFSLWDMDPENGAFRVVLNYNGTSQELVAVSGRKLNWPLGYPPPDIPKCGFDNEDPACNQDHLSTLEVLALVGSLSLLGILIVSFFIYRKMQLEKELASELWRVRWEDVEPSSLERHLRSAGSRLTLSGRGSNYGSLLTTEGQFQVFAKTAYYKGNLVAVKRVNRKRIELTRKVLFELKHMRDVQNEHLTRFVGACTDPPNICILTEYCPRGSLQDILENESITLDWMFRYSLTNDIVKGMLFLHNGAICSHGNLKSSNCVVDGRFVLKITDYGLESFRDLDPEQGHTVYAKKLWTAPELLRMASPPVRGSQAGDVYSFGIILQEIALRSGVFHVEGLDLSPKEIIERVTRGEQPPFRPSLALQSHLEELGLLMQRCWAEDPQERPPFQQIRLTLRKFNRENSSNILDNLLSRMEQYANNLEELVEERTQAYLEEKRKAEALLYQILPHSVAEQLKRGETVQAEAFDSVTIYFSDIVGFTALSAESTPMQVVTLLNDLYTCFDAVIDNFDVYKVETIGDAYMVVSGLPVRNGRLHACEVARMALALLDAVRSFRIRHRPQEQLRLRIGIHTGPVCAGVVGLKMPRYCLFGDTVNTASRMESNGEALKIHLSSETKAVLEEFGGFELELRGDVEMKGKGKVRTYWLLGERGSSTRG

| SMILES | activation |
| --- | --- |
| Nc1ccc2c(ccc3cccnc32)n1.O=[N+]([O-])c1cc([N+](=O)[O-])c(O)c([N+](=O)[O-])c1 | inactive: 4.53% |
| CP(=O)(OC12CC3CC(CC(C3)C1)C2)OC12CC3CC(CC(C3)C1)C2 | inactive: 2.71% |
| CCOC(=O)c1ccc(NP(C)(=O)Oc2ccc(Cl)cc2)cc1 (configuration not stated) | inactive: 1.69% |
| COc1ccc(OP(C)(=O)Nc2ccc(Br)cc2)cc1 (configuration not stated) | inactive: -7.46% |
| CCc1ccc(OP(C)(=O)Nc2cccnc2)cc1 (configuration not stated) | inactive: 1.27% |
| CP(=O)(Oc1ccccc1)N1CCOC1=O (configuration not stated) | inactive: 4.45% |
| O=C(OCCCN1CCCC1)C(O)(c1ccccc1)C1CCCCC1 (configuration not stated) | inactive: 1.36% |
| COc1ccccc1OP(C)(=O)Nc1c(C)n(C)n(-c2ccccc2)c1=O (configuration not stated) | inactive: 1.83% |
| CP(=O)(Nc1ccc(Cl)cc1)Oc1ccc(F)cc1 (configuration not stated) | inactive: -10.8% |
| COc1ccccc1OP(C)(=O)Nc1ccccc1Br (configuration not stated) | inactive: -6.63% |
| CC(C)(C)c1ccc(OP(C)(=O)O)cc1 | inactive: 0.21% |
| CN(C)C(=O)c1c([N+](=O)[O-])cc([N+](=O)[O-])cc1[N+](=O)[O-] | inactive: 1.56% |
| COc1ccccc1OP(C)(=O)Nc1ccc(Br)cc1 (configuration not stated) | inactive: -9.37% |
| CN(C)CCOC(=O)C(O)(c1ccccc1)C1CCCC1 (configuration not stated) | inactive: -1.52% |
| COc1ccc(OP(C)(=O)Nc2ccccn2)cc1 (configuration not stated) | inactive: -0.29% |
| Cc1c(NP(C)(=O)Oc2ccc(C(C)C)cc2)c(=O)n(-c2ccccc2)n1C (configuration not stated) | inactive: -4.76% |
| O=[N+]([O-])c1cc([N+](=O)[O-])c(Nc2ccccn2)c([N+](=O)[O-])c1 | inactive: -2.64% |
| CCc1ccc(OP(C)(=O)O)cc1 | inactive: 2.3% |
| COc1ccccc1OP(C)(=O)Nc1ccc(C)cc1C (configuration not stated) | inactive: -1.81% |
| CP(=O)(Nc1ccccn1)Oc1ccccc1 (configuration not stated) | inactive: -1.03% |
| Cc1cc(C)cc(OP(C)(=O)Nc2cccc(C(F)(F)F)c2)c1 (configuration not stated) | inactive: -3.19% |
| O=C1C(O)=C([N+](=O)[O-])C(=O)C(O)=C1[N+](=O)[O-] | inactive: 3.84% |
| COc1ccc(OP(C)(=O)Nc2ccccc2Br)cc1 (configuration not stated) | inactive: -5.44% |
| COc1ccccc1OP(C)(=O)Nc1ccc(C)c(C)c1 (configuration not stated) | inactive: 3.93% |
| CP(=O)(Nc1ccc(Cl)cc1Cl)Oc1ccccc1 (configuration not stated) | inactive: -18.4% |

| SMILES | activation |
| --- | --- |
| CCCCCCCCCCCCCCCC1C[N+](C)(C)CCOP(C)(=O)O1 (configuration not stated) | inactive: -31.1% |
| CP(=O)(OCCOc1ccccc1)OCCOc1ccccc1 | inactive: -2.41% |
| CCN(CC)CCCNc1ccccc1[N+](=O)[O-].O=[N+]([O-])c1cc([N+](=O)[O-])c(O)c([N+](=O)[O-])c1 | inactive: -1.89% |
| COc1ccc(OP(C)(=O)Nc2ccc(SC(F)(F)F)cc2)cc1 (configuration not stated) | inactive: 2.97% |
| CCOC(=O)c1ccc(NP(C)(=O)Oc2ccc(F)cc2)cc1 (configuration not stated) | inactive: 1.9% |
| CCN(CC)CCCOC(=O)C(O)(c1ccccc1)C1CCCCC1 (configuration not stated) | inactive: 0.74% |
| Cc1c([N+](=O)[O-])cc([N+](=O)[O-])c(Br)c1[N+](=O)[O-] | inactive: -1.4% |
| O=[N+]([O-])c1cc([N+](=O)[O-])c(OC2CCCCC2O)c([N+](=O)[O-])c1 (configuration not stated) | inactive: -0.97% |
| CCCCCOc1ccc(NP(C)(=O)Oc2ccc(Cl)cc2Cl)cc1 (configuration not stated) | inactive: 1.86% |
| CP(=O)(Nc1ccccc1)Oc1ccc(F)cc1 (configuration not stated) | inactive: -5.56% |
| O=[N+]([O-])c1cc([N+](=O)[O-])c(Nc2ccc(Cl)cc2)c([N+](=O)[O-])c1 | inactive: 7.46% |
| CC(C)c1ccc(OP(C)(=O)Nc2ccc(SC(F)(F)F)cc2)cc1 (configuration not stated) | inactive: 4.58% |
| CP(=O)(Nc1ccccc1F)Oc1ccccc1 (configuration not stated) | inactive: -3.42% |
| O=C(OCCN1CCN(CCOCc2ccccc2)CC1)C(O)(c1ccccc1)c1ccccc1 | inactive: -1.52% |
| O=C(OC1CN2CCC1CC2)c1ccc([N+](=O)[O-])cc1 (configuration not stated) | inactive: -3.93% |
| COc1ccc2c(c1O)-c1c(O)c(OC)cc3c1[C@H](C2)[N+](C)(C)CC3.O=[N+]([O-])c1cc([N+](=O)[O-])c([O-])c([N+](=O)[O-])c1[O-] | inactive: -4.77% |
| CP(=O)(Nc1ccc(SC(F)(F)F)cc1)Oc1ccc(F)cc1 (configuration not stated) | inactive: 6.82% |
| CCOP(=O)(CC)OCC | inactive: -0.42% |
| CCOP(C)(=S)SCC(=O)NC(C)(CC)C(=O)O (configuration not stated) | inactive: 0.63% |
| CP(=O)(Nc1ccc2c(c1)OCCO2)Oc1ccccc1 (configuration not stated) | inactive: 1.05% |
| O=[N+]([O-])c1cc([N+](=O)[O-])c(C(F)(F)F)c([N+](=O)[O-])c1O | inactive: -6.67% |
| Cc1ccccc1NP(C)(=O)Nc1ccccc1C | inactive: -0.98% |
| COc1ccc(OP(C)(=O)Nc2cccc(Br)c2)cc1 (configuration not stated) | inactive: -8.02% |
| COc1ccc(NP(C)(=O)Oc2ccccc2OC)cc1 (configuration not stated) | inactive: 1.99% |
| CN(C)CCOC(=O)C(O)(c1ccccc1)C1CCCCC1 (configuration not stated) | inactive: -2.22% |

| SMILES | activation |
| --- | --- |
| O=[N+]([O-])c1cc([N+](=O)[O-])c(NCC2CCS(=O)(=O)C2)c([N+](=O)[O-])c1 (configuration not stated) | inactive: 1.26% |
| Cc1cc(-c2cccc3ccccc23)c(C)cn1.O=[N+]([O-])c1cc([N+](=O)[O-])c(O)c([N+](=O)[O-])c1 | inactive: -2.51% |
| O=[N+]([O-])c1ccc(OP2(=O)COCCO2)cc1 (configuration not stated) | inactive: 2.38% |
| Cc1c(C(c2ccc3c(c2)OCO3)c2c(C)n(C)n(-c3ccccc3)c2=O)c(=O)n(-c2ccccc2)n1C.O=[N+]([O-])c1cc([N+](=O)[O-])c(O)c([N+](=O)[O-])c1 | inactive: 0.2% |
| CCOC(=O)C(CC)C1=NC(C)(C)Cc2ccccc21.O=[N+]([O-])c1cc([N+](=O)[O-])c(O)c([N+](=O)[O-])c1 (configuration not stated) | inactive: -6.12% |
| O=[N+]([O-])c1cc([N+](=O)[O-])c(Nc2nnnn2CCO)c([N+](=O)[O-])c1 | inactive: -0.47% |
| CN1CCCCC1COC(=O)C1(O)c2ccccc2CCc2ccccc21 (configuration not stated) | inactive: -18.4% |
| COc1ccccc1OP(C)(=O)Nc1c(C)cccc1C (configuration not stated) | inactive: -5.89% |
| CCCOc1ccc(NP(C)(=O)Oc2ccc(Cl)cc2)cc1 (configuration not stated) | inactive: 0.16% |
| CP(=O)(Nc1ccc(SC(F)(F)F)cc1)Oc1ccccc1 (configuration not stated) | inactive: 2.56% |
| COc1ccc(-c2ccccn2)cc1.O=[N+]([O-])c1cc([N+](=O)[O-])c(O)c([N+](=O)[O-])c1 | inactive: 2.47% |
| O=[N+]([O-])c1cc([N+](=O)[O-])c(-n2nnc3ccccc32)c([N+](=O)[O-])c1 | inactive: 0.83% |
| CN(Cc1cccnc1)C(=O)COc1ccc(Cl)c(Cl)c1.O=[N+]([O-])c1cc([N+](=O)[O-])c(O)c([N+](=O)[O-])c1 | inactive: 0.54% |
| O=[N+]([O-])c1cc([N+](=O)[O-])c(-c2cnn(-c3ccccc3)c2)c([N+](=O)[O-])c1 | inactive: -3.13% |
| Cc1nc2ccc3ccccc3c2s1.O=[N+]([O-])c1cc([N+](=O)[O-])c(O)c([N+](=O)[O-])c1 | inactive: -0.62% |
| COc1ccccc1OP(C)(=O)Nc1cccc(Br)c1 (configuration not stated) | inactive: -5.04% |
| Cc1cc(C)cc(OP(C)(=O)Nc2ccc(C)cc2C)c1 (configuration not stated) | inactive: -1.81% |
| CCOC(=O)c1ccc(NP(C)(=O)Oc2cc(C)cc(C)c2)cc1 (configuration not stated) | inactive: -3.8% |
| Cc1cc(C)cc(OP(C)(=O)Nc2ccccn2)c1 (configuration not stated) | inactive: -3.49% |
| CP(=O)(Nc1cccc(Br)c1)Oc1ccccc1 (configuration not stated) | inactive: -11.2% |
| Cc1ccc(C)c(NP(C)(=O)Oc2ccccc2)c1 (configuration not stated) | inactive: -0.29% |
| O=C(O)c1cccc(Nc2c([N+](=O)[O-])cc([N+](=O)[O-])cc2[N+](=O)[O-])c1 | inactive: -1.76% |
| CC1=NCCc2c1[nH]c1ccccc21.O=[N+]([O-])c1cc([N+](=O)[O-])c(O)c([N+](=O)[O-])c1 | inactive: -1.34% |
| O=[N+]([O-])c1cc([N+](=O)[O-])c(Nc2cccnc2)c([N+](=O)[O-])c1 | inactive: 3.56% |
| Cc1cccc(C)c1OP(C)(N)=O (configuration not stated) | inactive: 0.44% |

| SMILES | activation |
| --- | --- |
| CC(C)(C)c1ccc(OP(C)(=O)Nc2ccc(SC(F)(F)F)cc2)cc1 (configuration not stated) | inactive: -3.55% |
| O=[N+]([O-])c1ccc2c(c1)C=Nc1ccccc1O2 | inactive: 0.28% |
| CCOC(=O)c1ccc(NP(C)(=O)Oc2ccccc2)cc1 (configuration not stated) | inactive: 2.28% |
| Cc1ccc(NP(C)(=O)Oc2ccccc2)c(C)c1 (configuration not stated) | inactive: -2.98% |
| COc1ccccc1OP(C)(=O)Nc1ccc(C)cc1 (configuration not stated) | inactive: -2.95% |
| COc1ccc(OP(C)(=O)Nc2cccc(F)c2)cc1 (configuration not stated) | inactive: 2.67% |
| COc1ccccc1OP(C)(=O)Nc1cc(Cl)ccc1C (configuration not stated) | inactive: -1.77% |
| Cc1cc(C)cc(OP(C)(N)=O)c1 (configuration not stated) | inactive: 2.1% |
| COc1ccccc1-c1ccccn1.O=[N+]([O-])c1cc([N+](=O)[O-])c(O)c([N+](=O)[O-])c1 | inactive: 0.57% |
| CP(=O)(Oc1ccccc1)OC(c1ccccc1)C(F)(F)F (configuration not stated) | inactive: -0.53% |
| CP(=O)(Nc1ccc(SC(F)(F)F)cc1)Oc1ccc(Cl)cc1 (configuration not stated) | inactive: 3.55% |
| Cc1cccc(C)c1OP(C)(=O)Nc1ccc(SC(F)(F)F)cc1 (configuration not stated) | inactive: 1.46% |
| Cc1cc(C)cc(OP(C)(=O)Nc2ccc(SC(F)(F)F)cc2)c1 (configuration not stated) | inactive: -3.75% |
| CP(=O)(NC(=O)Nc1ccccc1)Oc1ccccc1 (configuration not stated) | inactive: 3.56% |
| CCc1ccc(OP(C)(=O)N2CCN(c3ccc([N+](=O)[O-])cc3)CC2)cc1 (configuration not stated) | inactive: -7.33% |
| CCOP(C)(=S)SCC(=O)NC(C)C(=O)O (configuration not stated) | inactive: 1.61% |
| O=[N+]([O-])c1cc([N+](=O)[O-])c(O)c([N+](=O)[O-])c1.c1ccc(Oc2ccncc2)cc1 | inactive: 9.09% |
| CCOC(=O)c1ccc(NP(C)(=O)Oc2ccc(OC)cc2)cc1 (configuration not stated) | inactive: 2.13% |
| CP(=O)(Nc1ccccn1)Oc1ccc(Cl)cc1 (configuration not stated) | inactive: -1.73% |
| CP(=S)(Nn1cnnc1)Oc1ccccc1 (configuration not stated) | inactive: 0.79% |
| COc1ccccc1OP(C)(=O)Nc1ccccc1 (configuration not stated) | inactive: 0.06% |
| CP(=O)(Nc1ccccc1Br)Oc1ccccc1 (configuration not stated) | inactive: -1.95% |
